The target of the experiment is T1, COX-2 (Ovis aries, UniProt P79208).
T1 construct: 3 Unit of COX-2 (Layman chemical) that is separated from sheep placenta and purified; purchased Layman chemical (sic); host or cells: sheep placenta (tissue-derived)
T1 sequence (P79208 17-603): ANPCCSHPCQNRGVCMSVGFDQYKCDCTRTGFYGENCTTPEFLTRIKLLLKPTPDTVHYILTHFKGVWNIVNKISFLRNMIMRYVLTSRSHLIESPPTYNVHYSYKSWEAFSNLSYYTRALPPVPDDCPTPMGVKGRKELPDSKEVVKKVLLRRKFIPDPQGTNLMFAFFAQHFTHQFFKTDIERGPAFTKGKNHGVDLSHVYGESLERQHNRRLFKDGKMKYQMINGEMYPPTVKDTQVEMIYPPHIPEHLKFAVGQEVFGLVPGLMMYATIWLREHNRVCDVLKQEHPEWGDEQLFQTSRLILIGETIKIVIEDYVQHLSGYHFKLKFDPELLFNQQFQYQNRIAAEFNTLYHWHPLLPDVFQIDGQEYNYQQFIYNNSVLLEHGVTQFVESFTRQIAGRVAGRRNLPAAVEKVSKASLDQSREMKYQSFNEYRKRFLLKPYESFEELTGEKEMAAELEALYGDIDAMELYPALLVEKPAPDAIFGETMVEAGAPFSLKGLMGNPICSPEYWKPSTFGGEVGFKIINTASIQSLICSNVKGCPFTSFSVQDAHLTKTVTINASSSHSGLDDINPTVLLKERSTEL
Briefly: Inhibition of PGE2 synthesis by inhibiting COX-2 activity (in vitro, TLC/autoradiography). Type of experiment: biochemical. The following applies: 3 Unit COX-2 from sheep placenta, [1-14C] arachidonic acid, 37° C. for 20 min. The method, then:
The inhibition effect of the novel derivatives against PGE2 synthesis was tested in vitro. […] The novel derivatives were synthesized from (−)-pimara-9(11), 15-diene-4-carboxylic acid, which is a diterpene compound isolated from root-bark of Acanthopanax Koreanum.
The mixture was stranded on ice for 5 min. To the mixture, the sample for assay of COX-2 activity was added, and then incubated on ice for 10 min. After preincubation, 0.02 μCi of [1-^14C] arachidonic acid, as an substrate, was added, and reacted at 37° C. for 20 min. For the termination of the reaction, 10 μl of 2 M HCl was added. Prostaglandin produced was extracted with ethylether twice. Two ethylether layers were integrated, and the solvent was evaporated at a 37° C. water-bath. […] PGE2 part of TLC plate developed was observed using autoradiography (PACKARD). The amount of PGE2 decreased by the sample was compared with reference, and then COX-2 inhibition activity of the sample was determined.

The record followed here is patent publication US6593363B1, “Diterpene derivatives and anti-inflammatory analgesic agents comprising the same” (Sae Han Pharm. Co., Ltd., priority 1998, dated 2003).

The term IC50 denotes the concentration needed to halve the response being measured. A high value points to weaker potency in that assay. In the case of `C=CC1(C)CC=C2C(CCC3C(C)(CCCCC(=O)O)CCCC23C)C1` (stereo not drawn) [Example 35, 4-Carboxybutyl-(−)-pimara-9(11),15-diene], half-maximal inhibition (IC50) required 38.7 µM.
